Assay results reported in US20230285481A1, “TREATMENT OF CANCER HARBORING MUTATIONS IN THE TP53 GENE AND/OR POST-TRANSLATIONAL MODIFICATIONS IN THE P53 PROTEIN WITH PARVOVIRUSES” (UNIVERSIDAD AUTÓNOMA DE MADRID, priority 2018, published 2023).

Tested on: U87-MG glioblastoma cells
Experiment: MVM infection markers (NS1, Pp53-S15, vDNA) by IF-confocal, Southern and western blot in U87-MG
Assay type: cell-based, human
Conditions: uninfected U87-MG cells
Description: Immunofluorescence analyses were performed on neurospheres of hGSCs (human glioblastoma stem cells) and established adherent cell lines as follows: • Neurosphere staining. The cell spheres were fixed for 30 minutes with paraformaldehyde (PFA) 4%, then permeabilized for 10 minutes at room temperature with 0.1% Triton X-100 (Merck) in PBS, and blocked by incubating 20 minutes with 0.1% Triton X-100 and 10% fetal bovine serum (Sigma) in PBS. Neurospheres were incubated in the same buffer with the primary antibodies indicated in the figures for 1 h at 37° C., and finished by four five-minute PBS washes. Then neurospheres were incubated with the secondary antibodies at appropriate concentrations in the same buffer and conditions, and finally stained with DAPI for half an hour and mounted embedding at 37° C. in 0.8% agarose-LGT prepared in PBS. Embedded neurospheres were applied as 200 microliters drops on pre-cooled large (2×3 cm) coverslips and stored at 4° C. in the dark until confocal analysis. • Adherent cells. […] The images were processed with Adobe Photoshop CS5 programs (Adobe Systems Incorporated) and ImageJ/FIJI (http://rsb.info.nih.gov/ij/) taking the same samples as a zero-signal reference without antibodies (auto-fluorescence control), or only with secondary antibodies. […]

## NC(=O)NO [HU, Hydroxyurea]
  p53 phosphorylation at the Ser15 residue: substantially increased
